The record followed here is patent US20240376226A1 (JANUX THERAPEUTICS, published 2024).

First the molecules themselves.
B1: Peptide-24 (synthetic, biotinylated) (peptide)
peptide: GGLECFDPEIPEAFCIGGGGS
modifications: C-terminal [PEG4]Lys(biotin)-NH2
B2: Peptide-28 (synthetic, biotinylated) (peptide)
peptide: GGLCMIGDWLPGDVCLGGGGS
modifications: C-terminal [PEG4]Lys(biotin)-NH2
B3: Peptide-25 (synthetic, biotinylated) (peptide)
peptide: GGQGCGTIADPEPHCWGGGGS
modifications: C-terminal [PEG4]Lys(biotin)-NH2
B4: Peptide-18 (synthetic, biotinylated) (peptide)
peptide: QGQSGQGYLWGCEWNCGGITTGGGGS
modifications: C-terminal [PEG4]Lys(biotin)-NH2
B5: SP34 (Ab-9, Ab-10) (antibody, mouse IgG1, V domains shown)
VH: EVQLVESGGGLVQPKGSLKLSCAASGFTFNTYAMNWVRQAPGKGLEWVARIRSKYNNYATYYADSVKDRFTISRDDSQSILYLQMNNLKTEDTAMYYCVRHGNFGNSYVSWFAYWGQGTLVTVSS
VL: QAVVTQESALTTSPGETVTLTCRSSTGAVTTSNYANWVQEKPDHLFTGLIGGTNKRAPGVPARFSGSLIGDKAALTITGAQTEDEAIYFCALWYSNLWVFGGGTKLTVLQ
notes: used naked or chemically biotinylated; also called SP34-biotin
B6: Peptide-22 (synthetic, biotinylated) (peptide)
peptide: GGEWCLFDPDVPTCQDGGGGS
modifications: C-terminal [PEG4]Lys(biotin)-NH2

Assay [1] deals with B5. Briefly: competition ELISA, peptide vs SP34 binding captured CD3. In general terms: ELISA stands for enzyme-linked immunosorbent assay.
Assay [2] has as its target T1, Peptide-27 (synthetic, biotinylated) (C-terminal [PEG4]Lys(biotin)-NH2).
T1 peptide: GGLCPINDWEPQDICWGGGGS
The assay is described as follows: ELISA, antibody titrated on captured peptide.

In assay [3] the target is B4. Briefly: ELISA, antibody titrated on captured peptide.
The target of assay [4] is B2. Briefly: ELISA, antibody titrated on captured peptide.
Assay [5] deals with T2, Peptide-21 (synthetic, biotinylated) (C-terminal [PEG4]Lys(biotin)-NH2).
T2 peptide: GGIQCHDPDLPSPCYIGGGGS
Briefly: ELISA, antibody titrated on captured peptide.

The target in assay [6] is T3, Peptide-19 (synthetic, biotinylated) (C-terminal [PEG4]Lys(biotin)-NH2).
T3 peptide: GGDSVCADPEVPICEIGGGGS
Briefly: ELISA, antibody titrated on captured peptide.

The target in assay [7] is B6. Briefly: ELISA, antibody titrated on captured peptide.
The target of assay [8] is T4, Peptide-26 (synthetic, biotinylated) (C-terminal [PEG4]Lys(biotin)-NH2).
T4 peptide: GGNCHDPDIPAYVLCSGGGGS
The assay is described as follows: ELISA, antibody titrated on captured peptide.

For assay [9], the target named is B3. Briefly: ELISA, antibody titrated on captured peptide.
Assay [10] addresses T5, Peptide-20 (synthetic, biotinylated) (C-terminal [PEG4]Lys(biotin)-NH2).
T5 peptide: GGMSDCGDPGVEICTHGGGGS
Briefly: ELISA, antibody titrated on captured peptide.

The target in assay [11] is B1. The assay is described as follows: ELISA, antibody titrated on captured peptide.
The target in assay [12] is T6, Peptide-23 (synthetic, biotinylated) (C-terminal [PEG4]Lys(biotin)-NH2).
T6 peptide: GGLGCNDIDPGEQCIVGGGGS
The assay is described as follows: ELISA, antibody titrated on captured peptide.

One may read the IC50 as the concentration that inhibits the measured activity by half. Read a low IC50 as inhibition by little substance. By EC50 is commonly meant the concentration giving half of the maximal effect. The low end stands for a more potent agent, the high end for a less potent agent.

Take B1: the IC50 in assay [1] stood at 2220 nM.

In turn, B2 returned a half-maximal inhibitory concentration (IC50) in assay [1] of 96000 nM. This IC50 lies about 43-fold higher than the previous one.

For B3, the half-maximal inhibitory concentration (IC50) in [1] is 2490 nM.

In assay [1], B4 returned a 50% inhibitory concentration (IC50) of 4760 nM.

In the case of B5, the EC50 in assay [2] came out at 7.62 nM; in assay [3], 2.75 nM; in assay [4], 6.76 nM; in assay [5], 8.25 nM; in assay [6], 8.03 nM; in assay [7], 2.56 nM. Besides, the EC50 in assay [8] was determined as 8.69 nM; in [9], 1.95 nM; in assay [10] it was 7.13 nM; in [11], 2.66 nM; in [12], 8.2 nM.

Turning to B6, the IC50 in [1] turned out to be 1810 nM.
